Protein sequences, listed by entry. Tags and fused reporters are not part of them.
Importin subunit beta-1 (Homo sapiens), Q14974, UniProt Q14974, whole entry, looked up: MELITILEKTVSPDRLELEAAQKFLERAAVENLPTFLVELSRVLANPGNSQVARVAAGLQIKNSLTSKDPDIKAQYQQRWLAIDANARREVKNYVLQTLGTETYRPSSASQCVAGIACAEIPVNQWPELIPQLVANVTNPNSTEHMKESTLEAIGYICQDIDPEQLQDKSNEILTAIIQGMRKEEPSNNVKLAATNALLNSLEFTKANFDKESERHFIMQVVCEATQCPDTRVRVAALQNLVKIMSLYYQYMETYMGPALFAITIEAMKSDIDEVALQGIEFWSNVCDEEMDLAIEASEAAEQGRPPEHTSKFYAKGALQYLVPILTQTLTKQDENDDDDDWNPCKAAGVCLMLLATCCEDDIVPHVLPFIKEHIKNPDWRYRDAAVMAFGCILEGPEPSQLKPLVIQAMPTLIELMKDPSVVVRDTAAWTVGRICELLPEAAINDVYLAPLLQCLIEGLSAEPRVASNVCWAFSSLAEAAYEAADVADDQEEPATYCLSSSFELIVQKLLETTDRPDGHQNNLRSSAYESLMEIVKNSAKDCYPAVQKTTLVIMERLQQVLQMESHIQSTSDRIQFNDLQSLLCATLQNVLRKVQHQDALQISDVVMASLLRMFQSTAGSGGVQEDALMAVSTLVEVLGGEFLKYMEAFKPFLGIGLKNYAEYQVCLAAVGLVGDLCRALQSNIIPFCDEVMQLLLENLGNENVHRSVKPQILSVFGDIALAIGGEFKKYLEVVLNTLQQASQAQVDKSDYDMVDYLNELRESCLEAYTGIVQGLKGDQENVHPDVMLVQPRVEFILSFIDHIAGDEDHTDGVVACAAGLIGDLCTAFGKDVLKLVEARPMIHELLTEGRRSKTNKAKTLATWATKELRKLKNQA

# Hits are enriched below; roughly 0.39% of the tested compounds scored in any of these assays.
# CCT chaperon mod = High-Throughput Screening for Modulators of Cytosolic Chaperonin Activity | purified chaperonin ATPase assay, HTRF ADP detection, 30 min | activity change, % (no concentration beside the values), hits read low | 0.3% of 360,000 active | AID 651819, 2012; in the data active means activity change below about -30%; further: on the % scale 0 is the no-effect control and ±100 the full control effect
#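 ATPase activity: ADP formed was measured by HTRF Transcreener (665/615 nm ratio) after 30 min at 37 deg C with 10 uM ATP. Compounds screened at one 76 uM concentration against 40 or 20 nM TRiC in Tris pH 7.4/KCl/MgCl2/DTT buffer.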
# Mm-Cpn inhibitor = Inhibitors of TCP-1 ring complex (TRiC) of Methanococcus maripaludis (MmCpn): qHTS; Chaperonin Mm-Cpn (Methanococcus maripaludis); purified Mm-Cpn ATPase, ADP Transcreener TR-FRET; Potency, µM (highest dose often 76.9 µM), without a hit: top-dose activity, negative = inhibition, actives largely listed as inhibitors; 0.031% of 330,000 active; active means well fitted inhibition curve with a large enough effect; inconclusive means small, poorly fitted or top-dose-only effect; further: potency means the concentration at half of the fitted maximal effect; on the % scale 0 is the no-effect control and ±100 the full control effect; nearly all actives have a fitted effect of over 80% in size
#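 Purified archaeal Mm-CPN (25nM final) preincubated 10 min at 37degC with compound, then 10uM ATP for 30 min at 37degC; ADP measured by HTRF Transcreener TR-FRET; buffer 30 mM TRIS pH 7.4, 100mM KCl, 5mM MgCl2, 1mM DTT.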
# Rango complex inh = qHTS Assay for Inhibitors of Rango (Ran-regulated importin-beta cargo) - Importin beta complex formation; 0.031% of 340,000 active; Importin subunit beta-1 (Homo sapiens), Q14974; Potency, µM (titrated, usually from 92.2 µM), for the others: at the highest dose inhibition of complex formation; Rango CFP/YFP FRET sensor + importin beta, 45 min;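 further: potency means the concentration at half of the fitted maximal effect; 0% = DMSO wells and 100% = buffer wells lacking importin beta; nearly all actives have a fitted effect of over 15% in size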
#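 Inhibition scored from the CFP 486 nm/YFP 530 nm FRET ratio 45 min after adding 0.125 microM importin beta to 50 nM Rango biosensor preincubated 5 min with compound (room temperature, PBS with DTT, Tween-20, BSA). No-importin wells as positive control.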
# Rango release inh = qHTS Assay for Inhibitors of RanGTP induced Rango (Ran-regulated importin-beta cargo) - Importin beta complex dissociation. Potency, µM (series often up to 46.1 µM), for inactives: at the top dose activity change, negative = inhibition. Snurportin-1 (Homo sapiens) + GTP-binding nuclear protein Ran (Homo sapiens) + Importin …. Biochemical FRET Rango-importin beta, RanGTP-induced dissociation. 0.071% of 340,000 active; further: potency means the concentration at half of the fitted maximal effect; % of control where 0% means no effect; nearly all actives have a fitted effect of over 45% in size
#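 Rango FRET biosensor (snurportin-1 IBB flanked by N-terminal EYFP and C-terminal CFP10) at 0.1 uM, with 0.25 uM importin beta in PBS, 1mM DTT, 0.02% Tween-20, 0.1% BSA. 0.6 uM Ran, 2mM GTP and 0.2 uM RCC1 were then added for 45 min at room temperature. Inhibition read as loss of FRET rise.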
# * = called active by the depositor; ? = inconclusive; . = no result. Unless noted, the call rests on the fitted dose curve.
cpd | SMILES | CCT chaperon mod | Mm-Cpn inhibitor
1 | CCc1nnc(NC(=O)CCn2cnc3ccccc3c2=O)s1 | -30.8* | -0.2%
2 | Cc1cc2ncn(/N=C/c3ccc([N+](=O)[O-])o3)c2cc1C | -3.7 | 1.5%
3 | Nc1ccn([C@@H]2O[C@H](C(=O)N[C@H](CO)Cc3ccccc3)[C@@H](O)[C@H]2O)c(=O)n1 | -1.5 | .
4 | CCC(C)(C)C1CCc2[nH]nc(C(=O)NCc3ccccn3)c2C1 (stereo unspecified) | -4.1 | 1.9%
5 | COc1ccc2cc(C3(C)NC(=O)N(CC(=O)NCCC4=CCCCC4)C3=O)ccc2c1 (stereo unspecified) | -0.6 | 0.7%
6 | COc1ccc2cc(C3(C)NC(=O)N(CC(=O)NCC(F)(F)F)C3=O)ccc2c1 (stereo unspecified) | -33.3* | 0.9%
7 | O=C1CCc2cc(S(=O)(=O)N3CCCCC3)cc3c2N1CC3 | 0.1 | -1.8%
8 | CC(C)Sc1nc2c(cnn2-c2ccccc2)c(=O)[nH]1 | -46.6* | -0.4%
9 | C[C@@H](NC(=O)[C@@H]1CCCN1C(=O)[C@@H]1CCCN1C(=O)c1ccc(Cl)cc1)c1ccccc1 | 0.5 | .
10 | CN(C)c1ncnc2c1ncn2[C@H]1CN(Cc2cccnc2)C[C@@H](CO)O1 | 0.1 | .
11 | Cc1cc(C(=O)CCC(=O)Nc2cccc(F)c2)c(C)s1 | -0.5 | .
12 | O=C(Nc1ccc2c(c1)OCO2)N1CCN(Cc2ccco2)CC1 | -3.4 | 0.5%

cpd | Rango complex inh | Rango release inh
1 | -0.6% | -1.7%
2 | 58µM* | -0.5%
3 | . | .
4 | -3.1% | 9.8%
5 | 8.1% | -0.2%
6 | 0.8% | 3.6%
7 | -4.3% | 9.8%
8 | 1.1% | -4.4%
9 | . | .
10 | . | .
11 | . | .
12 | 0.6% | 8.5%

# Sorted by length of the SMILES (highest first): 3 of the compounds above.
cpd | SMILES | CCT chaperon mod | Mm-Cpn inhibitor
5 | COc1ccc2cc(C3(C)NC(=O)N(CC(=O)NCCC4=CCCCC4)C3=O)ccc2c1 (stereo unspecified) | -0.6 | 0.7%
6 | COc1ccc2cc(C3(C)NC(=O)N(CC(=O)NCC(F)(F)F)C3=O)ccc2c1 (stereo unspecified) | -33.3* | 0.9%
11 | Cc1cc(C(=O)CCC(=O)Nc2cccc(F)c2)c(C)s1 | -0.5 | .

cpd | Rango complex inh | Rango release inh
5 | 8.1% | -0.2%
6 | 0.8% | 3.6%
11 | . | .

# Additional records follow.
cpd | SMILES | CCT chaperon mod | Mm-Cpn inhibitor
13 | CCCNC(=O)N1CCN(Cc2ccco2)CC1 | -62.6* | 0.1%
14 | Cc1noc(C)c1C(=O)OCC(=O)NCc1ccccc1 | -1.4 | -1.4%
15 | COc1ccc(NC(=O)NC(C)(C(F)(F)F)C(F)(F)F)cc1 | -78.7* | 1.4%
16 | CCOC(=O)C1=CCC(c2ccc(Cl)cc2)N(S(=O)(=O)c2ccc(C)cc2)C1 (stereo unspecified) | 1.1 | .
17 | COc1ccccc1NC(=O)Nc1nc(C(N)Cc2ccccc2)cs1 (stereo unspecified) | -30.4* | .
18 | O=C(Nc1nc(-c2cccs2)cs1)c1ccc(S(=O)(=O)N2CCCCC2)cc1 | -1.0 | 44.7µM*
19 | O=C(Nc1nc(-c2cccs2)cs1)c1cccc(S(=O)(=O)N2CCCCCC2)c1 | -2.6 | ?
20 | CCOc1cccc(C(=O)Nc2nc(-c3ccc(S(=O)(=O)N4CCOCC4)cc3)cs2)c1 | 1.9 | ?
21 | CC(C)C(=O)Nc1nc(-c2ccc(S(=O)(=O)N3CCOCC3)cc2)cs1 | -3.2 | -11.6%
22 | O=C(COc1cccc(Cl)c1)Nc1nc(-c2ccc(S(=O)(=O)N3CCOCC3)cc2)cs1 | -3.2 | 39.8µM*
23 | O=C(Nc1cccc(Cl)c1Cl)C1CCCO1 (stereo unspecified) | -2.4 | 1.2%
24 | CC1=CC(c2ccc(Cl)cc2)n2nc(NC(=O)c3ccccc3)nc2N1 (stereo unspecified) | 0.1 | -6.0%

cpd | Rango complex inh | Rango release inh
13 | 0.7% | -8.9%
14 | -5.2% | 0.8%
15 | -1.7% | 0.4%
16 | . | .
17 | . | .
18 | -2.6% | 17.5%
19 | -2.7% | 12.5%
20 | 65.1µM* | -5.1%
21 | -1.1% | 10.9%
22 | 0.1% | 0.5%
23 | -0.4% | 0.9%
24 | ? | -8.6%

# Next part:
cpd | SMILES | CCT chaperon mod | Mm-Cpn inhibitor
25 | CC(=O)Nc1nc2n(n1)C(c1ccc(Cl)cc1)C=C(C)N2 (stereo unspecified) | 0.5 | -4.5%
26 | O=C1NC(=S)N/C1=C\c1ccc(N2CCOCC2)cc1 | 0.9 | -4.4%
27 | O=C(CCS(=O)(=O)c1ccc(Br)cc1)N1CCCCCC1 | -73.6* | 0.6%
28 | N#Cc1ccccc1S(=O)(=O)N1CCNS(=O)(=O)c2ccccc21 | 0.3 | -8.1%
29 | CCCCNc1nccnc1-c1cccc(C=O)c1 | -1.9 | .
30 | CC(C)(C)C(=O)COc1ccccc1[N+](=O)[O-] | -48.2* | 1.9%
31 | O=C(COc1ccccc1[N+](=O)[O-])Nc1cc(Cl)ccc1C(=O)O | -1.1 | 44.7µM*
32 | Cc1onc(-c2c(F)cccc2Cl)c1C(=O)Nc1cc2cc([N+](=O)[O-])ccc2oc1=O | 1.8 | .

cpd | Rango complex inh | Rango release inh
25 | ? | 13µM*
26 | ? | 8.2µM*
27 | -2.9% | -0.6%
28 | -1.2% | -3.6%
29 | . | .
30 | -1.6% | 0.6%
31 | 0.1% | 3.4%
32 | . | .

# Bioassay records: PubChem BioAssay, National Center for Advancing Translational Sciences (NCATS)
